# Values of other authors, collected in patent US20240059655A1, “HETEROCYCLIC G-PROTEIN-COUPLED RECEPTOR 52 (GPR52) AGONISTS” (Board of Regents, The University of Texas System, priority 2020, published 2024).
# By UniProt entry, the sequences of proteins in these tests, tags left out.
# UniProt Q9Y2T5, whole entry: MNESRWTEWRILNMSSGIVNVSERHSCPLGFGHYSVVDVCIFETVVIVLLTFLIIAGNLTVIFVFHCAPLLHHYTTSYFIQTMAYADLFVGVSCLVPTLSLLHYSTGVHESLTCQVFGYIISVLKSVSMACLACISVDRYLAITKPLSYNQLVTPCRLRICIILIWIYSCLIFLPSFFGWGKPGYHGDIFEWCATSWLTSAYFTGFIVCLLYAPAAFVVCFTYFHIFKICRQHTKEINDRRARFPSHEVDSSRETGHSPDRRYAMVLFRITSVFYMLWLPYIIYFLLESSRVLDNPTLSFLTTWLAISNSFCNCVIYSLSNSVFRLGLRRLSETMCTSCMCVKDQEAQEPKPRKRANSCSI
# Assays:
# GPR52 = GPR52 (Homo sapiens (Human), UniProt Q9Y2T5); settings: reported in the literature; cited from earlier work
# [1] = reported in the literature; cited from earlier work
# rodent = settings: dose of 3 mg/kg; cited from earlier work
Structure (SMILES),GPR52 Emax (GPR52),bioavailability (F) [1],methamphetamine-induced hyperactivity (rodent)
Cc1nn(-c2cccc3cc(Cc4cc(F)cc(Cl)c4)sc23)c(CO)c1C(=O)NCCO,103%,–,–
COCCNC(=O)c1cccc(-c2cccc3cc(Cc4cc(F)cc(Cl)c4)sc23)c1,–,73%,significantly inhibited
